# Experimental data as given in ChEMBL document CHEMBL1134791, “2- and 3-substituted 1,4-naphthoquinone derivatives as subversive substrates of trypanothione reductase and lipoamide dehydrogenase from Trypanosoma cruzi: synthesis and correlation between redox cycling activities and in vitro cytotoxicity” (J Med Chem, 2001).
# Sequences of proteins named here, by UniProt entry; tags and fusion partners are left off. A change or cut given only in a name is not applied to a line headed by its entry.
# UniProt P28593: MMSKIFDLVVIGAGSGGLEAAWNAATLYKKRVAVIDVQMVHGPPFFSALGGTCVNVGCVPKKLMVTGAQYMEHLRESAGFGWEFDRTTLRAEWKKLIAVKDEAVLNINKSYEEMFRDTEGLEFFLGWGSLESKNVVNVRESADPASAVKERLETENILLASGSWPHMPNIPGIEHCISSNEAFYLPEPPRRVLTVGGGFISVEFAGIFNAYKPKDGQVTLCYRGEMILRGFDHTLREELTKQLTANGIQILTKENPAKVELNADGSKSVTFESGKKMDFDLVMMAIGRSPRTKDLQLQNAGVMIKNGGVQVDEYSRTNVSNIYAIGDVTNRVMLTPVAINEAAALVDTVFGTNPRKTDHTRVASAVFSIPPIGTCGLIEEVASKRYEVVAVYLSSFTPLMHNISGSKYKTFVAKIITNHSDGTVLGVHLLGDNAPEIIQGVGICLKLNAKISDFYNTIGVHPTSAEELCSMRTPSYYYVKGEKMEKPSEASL
# What was measured:
# [1] = target: Trypanothione reductase (Trypanosoma cruzi) (UniProt P28593); experiment: Rate of NADPH oxidation by TcTR in presence of 100 uM NQ was determined in comparison to intrinsic oxidase activity
# In short: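 Quinone reductase activity of recombinant TcTR measured as NADPH oxidation at 340 nm. Buffer was 20 mM Hepes, 1 mM EDTA, 0.15 M KCl, pH 7.25, with 250 µM NADPH at 25 °C. Rate with naphthoquinone (100 µM for line 8, 25 µM for line 9) divided by intrinsic oxidase rate of enzyme plus NADPH alone. Mean of at least two measurements.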
# [2] = tested on: Dihydrolipoyl dehydrogenase (Trypanosoma cruzi); experiment: The second order rate constant of the TcLipDH (Trypanosoma cruzi lipoamide dehydrogenase) catalyzed NADH oxidation.
structure (smiles),measurement,setting,value
CC1=C(CCC(=O)NCCCN2CCN(C)CC2)C(=O)c2c(O)cccc2C1=O,x fold,[1],1000 100µM
same,k cat/Km,[2],11.3 10e4 M-1 s-1
